Test results reported in patent US6099822A, “Imaging methods and compositions” (priority 1998, dated 2000).

Tests used:
[1] = tested on: MX-1 human breast tumor xenografts; assay: Autoradiographic biodistribution of Tc-99m-TG and C14-DG in nude mice bearing MX-1 tumors; type: in vivo; details: in words
Description: In order to better understand the pattern of Tc-99m-TG localization in tumors, autoradiographic biodistribution of Tc-99m-TG was compared to C^14 -DG in nude mice (18-20 g) bearing MX-1 human breast tumor xeno-grafts. 3 mCi (111 MBq) of Tc-99m-5TG and 5 μCi (185 kBq) of C^14 -DG were injected at the same time into the tail vein of the mice. Autoradiogram sections including the tumors and vital organs of the mice were obtained at 20 minutes, 1 hour, and 3 hours post injection and developed using simultaneous Tc-99m and C^14 exposures of the same sections.

[2] = not given; remark: listed apart in the source
[3] = tested on: Plasma protein; details: 15 minute plasma samples, ultrafiltration
[4] = tested on: MC26 colon carcinoma; details: for Muscle uptake: contralateral thigh; for Muscle uptake / Heart uptake / Kidneys uptake / Liver uptake / Lungs uptake / Stomach uptake / Thyroid uptake / Tumor uptake: mean and SD, n = 5
[5] = tested on: MC26 colon cancer; details: mice loaded with non-radioactive D-glucose
[6] = i.v. 20 μCi/kg, biexponential model

Question: For “technetium-99m (Tc-99m)-labeled 5-thio-D-glucose [Tc-99m-TG]”, which “Tumor localization compared to C14-DG” value ([1]; MX-1, 20 minutes, 1 hour, 3 hours) is on record?
Answer: greater and more persistent tumor localization

Question: And the Distribution within tumor ([1]; MX-1, center of the tumors)?
Answer: concentrated at the center of the tumors

Question: What about the Labeling efficiency (30 minute incubation at room temperature) of the same substance?
Answer: 98.5±0.8%

Question: And the Stability of complex (in words)?
Answer: high stability

Question: And the Urinary excretion ([2]; 1 hour post-injection, i.v.)?
Answer: 53±5%

Question: And the Plasma clearance [2, 6]?
Answer: 14.5 ± 2 mL/min

Question: And the Renal clearance [2, 6]?
Answer: 11.3 ± 3 mL/min

Question: What about the “Accumulation in the kidneys” value ([2]; rabbits, in words) of the same substance?
Answer: early and persistent accumulation in the kidneys

Question: And the “Extra-renal (hepatobiliary) excretion” value ([2]; rabbits, in words)?
Answer: minor

Question: And the Protein binding [3]?
Answer: 32±0.2%

Question: And the Muscle uptake ([4]; 1 hour)?
Answer: 0.6 ± 0.1 % ID/g

Question: What about the Heart uptake ([4]; 1 hour) of the same substance?
Answer: 0.17 ± 0.03 % ID/organ

Question: What about the Kidneys uptake ([4]; 1 hour) of the same substance?
Answer: 2.62±0.24 % ID/organ

Question: And the Liver uptake ([4]; 1 hour)?
Answer: 2.54±0.37 % ID/organ

Question: What about the Lungs uptake ([4]; 1 hour) of the same substance?
Answer: 0.41 ± 0.02 % ID/organ

Question: What about the Stomach uptake ([4]; 1 hour) of the same substance?
Answer: 0.46±0.13 % ID/organ

Question: And the Thyroid uptake ([4]; 1 hour)?
Answer: 0.17±0.06 % ID/organ

Question: What about the Tumor uptake ([4]; 1 hour, 60 min) of the same substance?
Answer: 1.6±0.3 % ID/g

Question: What about the Muscle uptake ([4]; 2 hours) of the same substance?
Answer: 0.5 ± 0.1 % ID/g

Question: And the Heart uptake ([4]; 2 hours)?
Answer: 0.12 ± 0.01 % ID/organ

Question: And the Kidneys uptake ([4]; 2 hours)?
Answer: 2.43 ± 0.20 % ID/organ

Question: And the Liver uptake ([4]; 2 hours)?
Answer: 2.33 ± 0.17 % ID/organ

Question: What about the Lungs uptake ([4]; 2 hours) of the same substance?
Answer: 0.34 ± 0.02 % ID/organ

Question: What about the Tumor uptake ([4]; 2 hours, 120 min) of the same substance?
Answer: 1.3±0.03 % ID/g and 1.4 ± 0.1 % ID/g

Question: And the Stomach uptake ([4]; 3 hours (text: over time))?
Answer: 0.2±0.05 % ID/organ

Question: And the Thyroid uptake ([4]; 3 hours (text: over time))?
Answer: 0.05±0.02 % ID/organ

Question: What about the Muscle uptake ([4]; 3 hours) of the same substance?
Answer: 0.3 ± 0.1 % ID/g

Question: What about the Heart uptake ([4]; 3 hours) of the same substance?
Answer: 0.13 ± 0.03 % ID/organ

Question: What about the Kidneys uptake ([4]; 3 hours) of the same substance?
Answer: 2.95 ± 0.49 % ID/organ

Question: What about the Liver uptake ([4]; 3 hours) of the same substance?
Answer: 1.88 ± 0.77 % ID/organ

Question: And the Lungs uptake ([4]; 3 hours)?
Answer: 0.29 ± 0.07 % ID/organ

Question: What about the Tumor uptake ([4]; 3 hours, 180 min) of the same substance?
Answer: 1.2±0.3 % ID/g

Question: And the Tumor uptake preference ([4]; in words)?
Answer: preferentially taken up by tumor tissue

Question: What about the “In vivo stability (breakdown to Tc-99m-pertechnetate)” value ([4]; inferred from thyroid and stomach uptake, in words) of the same substance?
Answer: highly stable in vivo, exhibiting minimal or no breakdown to Tc-99m-pertechnetate

Question: What about the “Decrease of tumor uptake (by a factor of)” value [5] of the same substance?
Answer: two

Question: And the “Concentrations in the blood and body background” value ([5]; in words)?
Answer: increased concentrations

Values joined by “and” are separate entries in the source; they are usually repeats but may differ in a detail not shown here. Identical values can stand only once. Like-named read-outs stand apart in the source and are kept apart here.
